Source: patent US8263526B2, “Compositions of keratin hydrolysate and microbes for pest control applications” (priority 2006, dated 2012)

Test system: blastospores of Paecilomyces fumosoroseus ARSEF 3581
Assay: % germination assay (6-hr) of blastospores in surfactant solutions
Assay type: cell-based
Conditions: 28° C.
Procedure: Blastospore suspensions (˜1×10^8 blastospores/ml) were prepared by adding 1.3 g of the dried blastospores of P. fumosoroseus formulate to 100 ml sterile deionized water. The spore suspension was stirred for 30 minutes, and then allowed to stand 1 minute to allow the diatomaceous earth to settle. Without disturbing the diatomaceous earth, 30 ml of the spore suspension was removed and transferred to a sterile bottle. The blastospore concentration of the suspension was measured using a hemacytometer.
A one ml aliquot of the previously described blastospore suspension was added to 49 ml of the foaming agents in a 250 ml baffled Erlenmeyer flask. The blastospore suspensions were incubated in a rotary shaker incubator (Innova 4000, New Brunswick) at 300 RPM and 28° C. for 6 hours. Blastospore germination was measured by microscopic observation of the germ tube formation. Four slides were prepared from the incubated blastospore suspension using separate pipets. Germ tube formation was measured for 100 blastospores on each slide. A total of 400 blastospores were counted from each flask.

Measured: % viability 6-hr germination

sodium linear alkyl benzene sulfonate [Na linear alkyl benzene sulfonate]
0.0%: surfactant 0.5% (w/w) | surfactant 1.0% (w/w) | surfactant 2.0% (w/w)
